Our source for the IC50 values is publication PMC6323793, “Shikonin inhibits cancer cell cycling by targeting Cdc25s” (BMC Cancer, 2019).

Usually IC50 stands for the midpoint of a concentration-inhibition curve.

The assay has as its target T1, recombinant human Cdc25B (Homo sapiens, UniProt P30305).
T1 construct: purchased CycLex CY-1353
T1 sequence (P30305 1-580): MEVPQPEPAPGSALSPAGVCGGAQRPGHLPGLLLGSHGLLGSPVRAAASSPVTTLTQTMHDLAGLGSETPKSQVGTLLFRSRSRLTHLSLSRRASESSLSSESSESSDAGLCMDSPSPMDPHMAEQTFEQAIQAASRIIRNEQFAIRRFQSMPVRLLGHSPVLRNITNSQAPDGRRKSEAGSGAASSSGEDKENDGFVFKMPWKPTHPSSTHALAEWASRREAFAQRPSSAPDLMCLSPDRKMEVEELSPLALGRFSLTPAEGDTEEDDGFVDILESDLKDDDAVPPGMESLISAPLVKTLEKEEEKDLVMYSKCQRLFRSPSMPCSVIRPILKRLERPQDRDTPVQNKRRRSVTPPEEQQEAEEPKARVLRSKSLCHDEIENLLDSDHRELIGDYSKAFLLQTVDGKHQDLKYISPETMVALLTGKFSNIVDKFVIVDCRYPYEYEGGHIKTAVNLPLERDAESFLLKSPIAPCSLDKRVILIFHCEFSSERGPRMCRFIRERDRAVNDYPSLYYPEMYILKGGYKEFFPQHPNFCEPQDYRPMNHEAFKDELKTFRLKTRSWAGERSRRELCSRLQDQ
The assay is described as follows: Cdc25B fluorometric phosphatase assay (OMFP substrate). The assay is classed as biochemical. The procedure: […]. Then, 25 μL of stop solution was added. Fluorescence was measured at an excitation wavelength of 485 nm and an emission wavelength of 530 nm using a fluorescence microplate reader (BioTek Instruments, Inc., Winooski, VT, USA). Menadione is a quinone-type inhibitor of Cdc25s that was used as a positive control here.

As for `CC(C)=CC[C@@H](O)C1=CC(=O)c2c(O)ccc(O)c2C1=O` [Shikonin], the IC50 was determined as 5.82 ± 0.37 µM.
